Experimental data: PubChem BioAssay AID504775 (Broad Institute, 2011)
The list shows a part of the results, in another mix than the full data. Calls of active or inactive are those of the source.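 The calls were made as follows: active = mean replicate activation of at least 60% and every replicate at or above 60%; inconclusive = mean or all-replicate condition met, but not both; inactive = mean below 60% and not all replicates reaching 60%.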

Test: activators of SR-BI mediated DiI-HDL uptake, primary screen, ldlA[mSR-BI] CHO cells, DiI fluorescence (AID 504775);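 also: 0% = median plate neutral-control signal and 100% = twice that signal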
Conditions: 3 h, at 12.5 µM, active compounds read high, 100 = double the neutral-control signal
Procedure, shortened: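 Test system: SR-BI-overexpressing, LDLR-lacking CHO cells; Also added: labelled HDL, 10 µg/mL; Measured by: bottom-read cell fluorescence after medium removal, ex 550/em 595 nm; Timing: 3 h uptake period with compound, 37 °C; Buffer or medium: F12, 0.5% BSA, 25 mM HEPES; Doses: single compound concentration, delivered by pin transfer.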

Row | Compound | activation
1 | O=[N+]([O-])c1ccc(OP2(=O)COCCO2)cc1 (configuration not stated) | inactive: 0.356%
2 | CP(=O)(OC12CC3CC(CC(C3)C1)C2)OC12CC3CC(CC(C3)C1)C2 | inactive: 11.4%
3 | CCOC(=O)c1ccc(NP(C)(=O)Oc2ccc(Cl)cc2)cc1 (configuration not stated) | inactive: 12.8%
4 | CCN(CC)CC(O)COC(=O)C(O)(c1ccccc1)C1CCCCC1 (configuration not stated) | inactive: -0.453%
5 | CP(=O)(Oc1ccccc1)N1CCOC1=O (configuration not stated) | inactive: 47.3%
6 | CCc1ccc(OP(C)(=O)Nc2cccnc2)cc1 (configuration not stated) | inactive: 12%
7 | COc1ccccc1OP(C)(=O)Nc1c(C)n(C)n(-c2ccccc2)c1=O (configuration not stated) | inactive: 18.3%
8 | O=C(OCCCN1CCCC1)C(O)(c1ccccc1)C1CCCCC1 (configuration not stated) | inactive: 18%
9 | CP(=O)(Nc1ccc(Cl)cc1)Oc1ccc(F)cc1 (configuration not stated) | inactive: 2.18%
10 | COc1ccccc1OP(C)(=O)Nc1ccccc1Br (configuration not stated) | inactive: -21.9%
11 | CC(C)(C)c1ccc(OP(C)(=O)O)cc1 | inactive: 23.2%
12 | CN(C)C(=O)c1c([N+](=O)[O-])cc([N+](=O)[O-])cc1[N+](=O)[O-] | inactive: 2.13%
13 | COc1ccccc1OP(C)(=O)Nc1ccc(Br)cc1 (configuration not stated) | inactive: -3.82%
14 | CN(C)CCOC(=O)C(O)(c1ccccc1)C1CCCC1 (configuration not stated) | inactive: 30.6%
15 | COc1ccc(OP(C)(=O)Nc2ccccn2)cc1 (configuration not stated) | inactive: 20%
16 | Cc1c(NP(C)(=O)Oc2ccc(C(C)C)cc2)c(=O)n(-c2ccccc2)n1C (configuration not stated) | inactive: -6.12%
17 | O=[N+]([O-])c1cc([N+](=O)[O-])c(Nc2ccccn2)c([N+](=O)[O-])c1 | inactive: -1.34%
18 | CCc1ccc(OP(C)(=O)O)cc1 | inactive: 28.6%
19 | CP(=O)(Nc1ccccn1)Oc1ccccc1 (configuration not stated) | inactive: 8.89%
20 | COc1ccccc1OP(C)(=O)Nc1ccc(C)cc1C (configuration not stated) | inactive: -16.1%
21 | O=C1C(O)=C([N+](=O)[O-])C(=O)C(O)=C1[N+](=O)[O-] | inactive: 4.37%
22 | Cc1cc(C)cc(OP(C)(=O)Nc2cccc(C(F)(F)F)c2)c1 (configuration not stated) | inactive: -1.76%
23 | COc1ccc(OP(C)(=O)Nc2ccccc2Br)cc1 (configuration not stated) | inactive: -16.4%
24 | COc1ccccc1OP(C)(=O)Nc1ccc(C)c(C)c1 (configuration not stated) | inactive: -28.4%
25 | CP(=O)(Nc1ccc(Cl)cc1Cl)Oc1ccccc1 (configuration not stated) | inactive: -13%
26 | CCCCCCCCCCCCCCCC1C[N+](C)(C)CCOP(C)(=O)O1 (configuration not stated) | inactive: -15.4%
27 | CP(=O)(OCCOc1ccccc1)OCCOc1ccccc1 | inactive: -17.3%
